# Test results reported in PubChem BioAssay AID743093 (The Scripps Research Institute Molecular Screening Center, 2013).
# The entries are a selection whose mix differs from that of the whole data set. Some results for these compounds are left out of this collection, so the calls shown say nothing about other tests. Activity calls are given as the source filed them.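 How the source made its calls: active means inhibition above the mean plus 3 SD of compounds within the control limits, set per campaign (cut at about 38% in these data); inactive means the rest.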
# Test: late stage P. falciparum gametocyte viability inhibitors, primary screen, ATP luminescence, HTS (AID 743093);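 further: 0% = DMSO wells and 100% = medium only without gametocytes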
# Details: P. falciparum stage V gametocytes, 24 h, at 10.9 µM, hits give high values
row,Compound,inhibition
1,CN(C)C1CCCC1OC(=O)C(O)(c1ccccc1)c1ccccc1 (centres undefined),inactive: 0.67%
2,Cc1ccccc1C(=O)NCC1(N2CCCCC2)CCCCC1,inactive: -11.6%
3,CCN1CCCC(OC(=O)C2(O)c3ccccc3C=Cc3ccccc32)C1 (centres undefined),inactive: 2.5%
4,O=C(NCC1(N2CCCCC2)CCCCC1)c1cc([N+](=O)[O-])ccc1Cl,inactive: -24.3%
5,CCN(CC)CC(C)C(C)OC(=O)C(O)(c1ccccc1)c1ccccc1 (centres undefined),inactive: 8.95%
6,CC(C)N1C(=O)CC2(CCN(CCOC(=O)C(O)(c3ccccc3)c3ccccc3)CC2)C1=O,inactive: 5.86%
7,COc1ccc(Br)c(C(=O)NCC2(N3CCCCC3)CCCCC2)c1,inactive: 4.24%
8,CN(C)c1cccc(C(=O)NCC2(N(C)C)CCCCC2)c1,inactive: -9.67%
9,COc1cccc(C(=O)NCC2(N3CCCCC3)CCCCC2)c1,inactive: -1.72%
